This note sets out measurements from patent US12071488B2, “Method of sensitizing cancer cells to anti-cancer treatment” (TWO TO BIOTECH LTD., priority 2017, dated 2024).

The test system of one assay is MDA-MB-468 cells. As to the kind of experiment: Analysis of apoptosis in MDA-MB-468 cells with APC1 and Herceptin. Type of assay: cell-based, human. Conditions: Herceptin 12 μg/ml, APC1 250 μg/ml (FIG. 9). The protocol:
A bar graph showing the level of apoptosis in MDA-MB-468 cells without any treatment (control), upon administration of Herceptin (12 μg/ml), APC1 (250 μg/ml) or upon administration of APC and Herceptin at the above amounts. The level of apoptosis is also shown for N87 cell in the absence and in the presence of Herceptin (at 100 μg/ml).
Cells were examined for apoptosis or HER2 expression using FACS analysis. The HER2 antibody used was abcam ab16901. The marker Annexin (Enco) was used for assessment of apoptosis.

Another assay concerns MDA-MB-231 cells. As to the kind of experiment: FACS analysis of apoptosis (Annexin) in MDA-MB-231 cells. Type of assay: cell-based, human. Conditions: for level of apoptosis: MDA-MB-231 not pre-treated with APC1, 72 hours (FIG. 5A). Here is the method:
Cells were grown until 70-80% density was reached. Then the growth medium was discarded and the cells were treated with trypsin and medium as described above. The cells that were suspended in medium and Trypsin were then transferred into 50 ml conical tubes and centrifuged at 300 g for 10 min in 4° C. Next, the supernatant was discarded and 2 ml fresh medium was added to the cell pellet. The cells were fluidized and additional 13 ml medium was added to the cells such that the cells are suspended in a total of 15 ml medium. The cells were counted and around 40,000 cells were placed in each one of nine 25 cm^2 flasks in 10 ml medium (in each flask). Cells were placed in the incubator overnight. The next day, the supernatant was discarded and replaced by 10 ml DMEM or RPMI containing 2.5% FBS (instead of 10% FBS). The cell flasks were further treated for example as follows: • Flasks 1+9: no treatment • Flask 2: 250 μg/ml APC1 • Flask 3: no treatment • Flask 4: no treatment • Flask 5: no treatment • Flask 6: 250 μg/ml APC1 • Flask 7: 250 μg/ml APC1 • Flask 8: 250 μg/ml APC1
Cells treated as indicated above were incubated in an incubator for 48 hours. Then, a second dose of APC1 (at the same final concentration) was added to cell flasks 2, 6, 7 and 8 and the cells were further incubated for 24 hours. If the cells reached over 85% confluence, 50% of the cells were scraped from the flask. The media was discarded, and 10 ml DMEM or RPMI containing 10% FBS were added to each flask. The cell flasks were further treated for example as follows (with a third dose of APC and/or Kadcyla): • Flasks 1+9: no treatment • Flask 2: 250 μg/ml APC1 • Flask 3: 5 μg/ml Kadcyla • Flask 4: 10 μg/ml Kadcyla • Flask 5: 25 μg/ml Kadcyla • Flask 6: 250 μg/ml APC+5 μg/ml Kadcyla • Flask 7: 250 μg/ml APC1+10 μg/ml Kadcyla • Flask 8: 250 μg/ml APC1+25 μg/ml Kadcyla (optionally)
Cells were incubated for further 72-96 hours. Finally the cells were collected and subjected to analysis (FACS analysis of apoptosis markers, or assessment of HER2 expression) as described below. […]

In the assay with MDA-MB-468 cells, “Herceptin: humanized monoclonal antibody that interferes with the HER2/neu receptor [reference compound]” registered a level of apoptosis of 10%.

Consider “Kadcyla: antibody-drug conjugate of the monoclonal antibody trastuzumab linked to the cytotoxic agent emtansine (DM1)”, for which, in the assay on MDA-MB-231 cells (MDA-MB-231, prolonged incubation, Kadcyla 96 hours (FIG. 6)), the “level of cellular apoptosis” value was “low level of apoptosis”. For the same substance, the figures for the level of apoptosis entry in the assay on MDA-MB-231 cells (Kadcyla 5 μg/ml) and in the assay on MDA-MB-231 cells (Kadcyla 10 μg/ml) were “practically none” and 10%, respectively.
